# Reference: USRE46630E1, “Substituted 4-pyridones and their use as inhibitors of neutrophil elastase activity” (Boehringer Ingelheim International GmbH, priority 2012, dated 2017)
# The chains behind the UniProt entries cited, without tags or fusion partners. Residues count along the entry.
# UniProt P08246, 30-267 limits assumed: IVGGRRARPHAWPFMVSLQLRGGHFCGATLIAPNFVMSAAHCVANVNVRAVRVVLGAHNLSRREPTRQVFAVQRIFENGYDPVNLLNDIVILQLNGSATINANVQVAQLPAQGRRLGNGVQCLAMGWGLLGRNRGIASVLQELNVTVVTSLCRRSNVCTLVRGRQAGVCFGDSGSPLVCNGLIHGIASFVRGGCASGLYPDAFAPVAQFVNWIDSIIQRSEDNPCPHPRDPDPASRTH
# Molecular target: Human neutrophil elastase (Homo sapiens, UniProt P08246)
# Experiment: Human Neutrophil Elastase Assay
# Format: biochemical
# Conditions: for IC50: Neutrophil Elastase assay, substrate MeOSuc-Ala-Ala-Pro-Val-AMC 250 μM, 15 min preincubation, 60 min incubation at room temperature, pH 7.5
Structure (SMILES),IC50 [nM],"neutrophil elastase inhibitory potency, one enantiomer compared with the other (eutomer versus distomer of the racemic example)"
Cc1c(-c2cccc(C(F)(F)F)c2)c(=O)c(C(=O)NCc2ccc(S(C)(=O)=O)cc2)cn1[C@@H](C)c1ccc(C#N)cc1,20.1,distomer
"CNC(=O)c1cn(C(C)c2ccc(C#N)cc2)c(C)c(-c2cccc(C(F)(F)F)c2)c1=O (single isomer, unassigned) [Example 3.1]",2.9,
Cc1c(-c2cccc(C(F)(F)F)c2)c(=O)c(C(=O)NCc2ccc(S(C)(=O)=O)cc2)cn1C(C)c1ccc(C#N)cc1 (centres unmarked),< 1,
Cc1c(-c2cccc(C(F)(F)F)c2)c(=O)c(C(=O)NCc2ccc(S(C)(=O)=O)cn2)cn1Cc1ccc(F)cc1,1.5,
"CNC(=O)c1cn(C(C)c2ccc(C#N)cc2)c(C)c(-c2cccc(CF)c2)c1=O (single isomer, unassigned)",1880,
"CNC(=O)c1cn(C(C)c2ccc(C#N)cc2)c(C)c(-c2cccc(C(F)(F)F)c2)c1=O (single isomer, unassigned) [Example 3.1B]",226,
"CNC(=O)c1cn(C(C)c2ccc(C#N)cc2)c(C)c(-c2cccc(C(F)(F)F)c2)c1=O (single isomer, unassigned) [Example 3.1A]",< 1,
"CNC(=O)c1cn(C(C)c2ccc(C#N)cn2)c(C)c(-c2cccc(C(F)(F)F)c2)c1=O (single isomer, unassigned) [Example 15A]",3.8,
CNC(=O)c1cn(Cc2ccc(C#N)cn2)c(C)c(-c2cccc(C(F)(F)F)c2)c1=O,25.7,

# The next lines start with the values.
IC50 [nM],"neutrophil elastase inhibitory potency, one enantiomer compared with the other (eutomer versus distomer of the racemic example)",Structure (SMILES)
1300,,"CCNC(=O)c1cn(C(C)c2ccc(C#N)cc2)c(C)c(-c2ccnc(C(F)(F)F)c2)c1=O (single isomer, unassigned) [Example 9.56B]"
2.8,,"Cc1noc(CNC(=O)c2cn(C(C)c3ccc(C#N)cc3)c(C)c(-c3ccnc(C(F)(F)F)c3)c2=O)n1 (single isomer, unassigned) [Example 9.5A]"
2.3,,"CCNC(=O)c1cn(C(C)c2ccc(C#N)cc2)c(C)c(-c2ccnc(C(F)(F)F)c2)c1=O (single isomer, unassigned) [Example 9.56A]"
878,,"Cc1noc(CNC(=O)c2cn(C(C)c3ccc(C#N)cc3)c(C)c(-c3ccnc(C(F)(F)F)c3)c2=O)n1 (single isomer, unassigned) [Example 9.5B]"
